This is an account of results in paper PMC2225448.

Protein sequences, listed by entry. Tags and fused reporters are not part of them. Lines headed by an entry give the natural chain unless they say otherwise; changes in a name come on top.
UniProt Q8WXH5: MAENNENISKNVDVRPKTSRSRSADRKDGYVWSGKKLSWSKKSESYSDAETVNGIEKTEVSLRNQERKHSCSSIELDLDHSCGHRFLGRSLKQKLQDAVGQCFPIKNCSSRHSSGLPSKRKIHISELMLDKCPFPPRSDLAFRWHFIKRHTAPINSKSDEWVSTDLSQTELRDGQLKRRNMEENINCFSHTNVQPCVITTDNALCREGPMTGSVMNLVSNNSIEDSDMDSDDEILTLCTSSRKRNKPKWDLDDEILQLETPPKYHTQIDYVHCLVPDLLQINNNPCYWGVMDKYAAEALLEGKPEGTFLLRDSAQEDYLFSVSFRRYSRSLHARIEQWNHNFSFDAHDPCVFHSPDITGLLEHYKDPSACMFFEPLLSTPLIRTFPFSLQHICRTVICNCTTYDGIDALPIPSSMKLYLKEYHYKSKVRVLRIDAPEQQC

This test has as its target EGFR pY1069 peptide pY1069 (Homo sapiens) (UniProt P00533). The experiment in a line: ITC.

In general, Kd refers to the constant that tells how readily two partners part at equilibrium.

SOCS4/ElonginB/C (from UniProt Q8WXH5) yielded a Kd greater than 10 µM.
